According to ChEMBL document CHEMBL1158408, “Large-scale application of high-throughput molecular mechanics with Poisson-Boltzmann surface area for routine physics-based scoring of protein-ligand complexes” (J Med Chem, 2009):

Biological target: Urokinase-type plasminogen activator (Homo sapiens, UniProt P00749)

| Compound | Ki |
| --- | --- |
| N=C(N)c1ccc2cc(C(=O)Nc3cccc(OC4CCCC4)c3)ccc2c1 | 0.0251 µM |
| N=C(N)c1ccc2cc(CCc3ccccc3)cc(Br)c2c1 | 1.26 µM |
| N=C(N)c1ccc2cc(C3CC3c3ccccc3)ccc2c1 (stereo not given) | 1.26 µM |
| COc1ccc2ccc(C(=N)N)cc2c1OCC(N)=O | 0.631 µM |
| [H]/N=C(\N)c1ccc2ccc(OC)c(OCCCBr)c2c1 | 6.31 µM |
